What is called IC50 is the concentration that inhibits the measured activity by half.

Experimental findings from ChEMBL document CHEMBL3132833, “3,4,2-Trimethoxy-trans-stilbene a potent CYP1B1 inhibitor” (Medchemcomm, 2014) are described below.

This assay has as its target T1, Cytochrome P450 1B1 (Homo sapiens, UniProt Q16678).
T1 sequence (Q16678 whole entry): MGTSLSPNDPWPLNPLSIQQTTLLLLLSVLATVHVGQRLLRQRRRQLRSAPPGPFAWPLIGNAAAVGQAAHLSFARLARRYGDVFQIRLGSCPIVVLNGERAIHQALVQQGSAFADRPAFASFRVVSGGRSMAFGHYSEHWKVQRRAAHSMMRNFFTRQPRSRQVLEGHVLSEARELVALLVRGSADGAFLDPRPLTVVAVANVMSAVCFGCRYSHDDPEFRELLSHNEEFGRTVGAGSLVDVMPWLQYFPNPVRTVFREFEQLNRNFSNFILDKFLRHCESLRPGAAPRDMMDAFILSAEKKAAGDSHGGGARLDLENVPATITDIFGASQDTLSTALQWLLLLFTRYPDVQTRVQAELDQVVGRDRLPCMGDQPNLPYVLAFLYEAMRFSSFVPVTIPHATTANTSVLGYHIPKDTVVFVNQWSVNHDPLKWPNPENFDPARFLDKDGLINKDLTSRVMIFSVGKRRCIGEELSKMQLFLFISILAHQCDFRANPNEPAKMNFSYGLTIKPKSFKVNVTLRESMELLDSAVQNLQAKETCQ

Molecule `COc1cc(/C=C/c2ccc(OC)cc2OC)cc(OC)c1` registered an IC50 of 2 nM.
